The source of these data is patent EP4610260B1, “ARYL HETEROCYCLIC KV1.3 INHIBITOR, PREPARATION METHOD THEREFOR, AND USE THEREOF” (Shanghai Shenshi Wise Technology Co., Ltd., priority 2022, dated 2024).

This test relates to Kv1.3 potassium channel. In words: Whole-cell patch-clamp assay for inhibitory activity against Kv1.3 (peak current). The test is classed as cell-based. The note with it: HEK293 cells stably expressing Kv1.3, room temperature. The procedure:
1. Assay for inhibitory activity of compounds against Kv1.X
HEK293 cells stably expressing Kv1.X (Kv1.1, Kv1.2, Kv1.3, Kv1.4, Kv1.5) potassium channels were cultured in DMEM medium containing 10% fetal bovine serum and 800 µg/mL G418 (geneticin) at a culture temperature of 37 °C and a carbon dioxide concentration of 5%.
1.2. Fluids used for recording
The extracellular fluid contained 40 mM NaCl, 3.5 mM KCl, 1 mM MgCl2•6H2O, 2 mM CaCl2•2H2O, 10 mM D-glucose, 10 mM HEPES, 1.25 mM NaH2PO4•2H2O, and the pH was adjusted to 7.4 with NaOH. The intracellular fluid contained 20 mM KCl, 115 mM K-Aspartic, 1 mM MgCl2•6H2O, 5 mM EGTA, 10 mM HEPES, 2 mM Na2-ATP, and the pH was adjusted to 7.2 with KOH.
The voltage stimulation protocol for recording whole-cell Kv1.X potassium currents via patch-clamp was as follows: After formation of a whole-cell seal, the cell membrane voltage was clamped at -80 mV, and then stepped to +40 mV for 500 ms. Data were acquired repeatedly every 30 s and the effect of the drug on Kv1.X currents was observed. […] Then, a slow capacitance compensation was given, and the membrane capacitance and series resistance were recorded. […]
Once the whole-cell recorded Kv1.X current stabilized, drug administration was started. […] For each cell, the current detected in the compound-free extracellular liquid was used as its own control group. […]

As usually defined, the IC50 is the concentration needed to halve the response being measured. Read a high IC50 as weaker potency in that assay. “3,4-Dichloro-2-(3-(piperidin-4-ylmethyl)-6,7-dihydro-5H-pyrrolo[2,1-c][1,2,4]triazol-6-yl)phenol [Example 17]” came in with a half-inhibitory concentration (IC50) of 6.68 nM.
